{
  "source": "patent US9278925B2",
  "about": "“Substituted 3-(biphenyl-3-yl)-4-hydroxy-8-methoxy-1-azaspiro[4.5]dec-3-en-2-one” (BAYER INTELLECTUAL PROPERTY GMBH, priority 2011, dated 2016)",
  "system": "human ACC1",
  "assay": "Human ACC1 enzyme assay (ADP-Glo)",
  "format": "biochemical",
  "settings": "pairwise, same dilution series; Preparation No. 2",
  "data": [
    {"smiles": "CO[C@]1(C)CC[C@]2(CC1)NC(=O)C(c1cc(-c3ccc(Cl)cc3)ccc1C)=C2O", "note": "[Example V.1-a, (5r,8r)-3-(4′-Chloro-4-methylbiphenyl-3-yl)-4-hydroxy-8-methoxy-8-methyl-1-azaspiro[4.5]dec-3-en-2-one]", "values": [
      {"measurement": "Ratio IC50s ACC2/ACC1 (respective measurement)", "value": 34}
    ]}
  ]
}
